Assay outcomes deposited in PubChem by National Center for Advancing Translational Sciences (NCATS).
Mito fusion yeast: inhibitors of mitochondrial division or activators of mitochondrial fusion; S. cerevisiae fusion-defective mutant growth rescue, CellTiterGlo 48 h; Potency, µM (series often up to 46.1 µM), for the others: at the highest dose growth rescue (activation), actives largely listed as activators; 320,000 compounds, 0.23% hits; also: potency is read from the fitted curve at half-maximal effect; % of control where 0% means no effect; nearly all actives have a fitted effect of over 45% in size
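Temperature-sensitive fusion-defective S. cerevisiae (e.g. fzo1-1, mgm1-5) were grown with compound in YPEG medium (3% ethanol, 3% glycerol) for 48 hours at 37C. Growth rescue was measured as viability by CellTiterGlo luminescence after 10 minutes at ambient.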
miR-21 FLuc: miR-21 reporter, rising signal | 340,000 tested, under 10 active | AID 2288 | HeLa miR-21 FLuc reporter, luciferase, 48 h | Potency, µM (titrated, usually from 38.3 µM), for inactives: at the highest dose reporter change, positive = more light; active = well fitted rising curve with a large enough effect; inconclusive = small, poorly fitted or top-dose-only effect; inactive = no such curve, though single readings can be large or run the other way;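 further: % of control where 0% means no effect; miR-21 action dims this reporter so a rising signal means less miR-21 action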
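HeLa cells stably expressing CMV-driven firefly luciferase with a downstream miR-21 binding sequence, endogenously expressing miR-21, were treated with titrations (up to about 40uM final) for 48 hours at 37 degree Celsius. Luciferase luminescence was read after lysis.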
Nrf2 inh: blocks Nrf2 signaling; Potency, µM (doses to about 46 µM), inactives show at the highest dose activity change, negative = inhibition, most hits filed as inhibitors; A549 ARE-Fluc reporter, luciferase luminescence, 18-24 h; 360,000 compounds, 2.1% hits; also: potency is read from the fitted curve at half-maximal effect; % is scaled to controls: 0 for no effect and ±100 for the full control effect; nearly all actives have a fitted effect of over 60% in size
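Nrf2 function is reported as luminescence of an ARE-controlled luciferase in A549 cells. Compounds were tested at several concentrations, and a CellTiter-Fluor read on the same wells flagged cytotoxicity.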
A549 viability: counter-screen for Nrf2 inhibitors: cytotoxicity in A549 cells; A549 ARE-Fluc cells, CellTiter-Fluor viability, 18-24 h; Potency, µM (series often up to 46 µM), inactives show top-dose activity change, negative = cytotoxicity, hits mostly inhibitors; 390,000 compounds, 0.16% hits; AID 504648; also: potency is read from the fitted curve at half-maximal effect; % is scaled to controls: 0 for no effect and ±100 for the full control effect
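A549 ARE_Fluc cells in 5% FBS OPTI-MEM were exposed to compounds in concentration-response for 18-24 h at 37 deg C. Viability was read by CellTiter-Fluor fluorescence (Ex 405/Em 525) after 30 min, before the luciferase read.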
Nrf2 activator: activates Nrf2 signaling | Potency, µM (highest dose often 46.1 µM), inactives show at the highest dose activation, most hits filed as activators | AREc32 ARE-luciferase reporter (MCF7-derived line), luminescence, 24 h | 410,000 compounds, 0.31% hits; also: potency is read from the fitted curve at half-maximal effect; % of control where 0% means no effect; nearly all actives have a fitted effect of over 65% in size
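Luminescent ARE reporter assay in AREc32_Fluc cells: overnight plating at 37 deg C, 24 hr compound incubation, Steady-Glo added, 30 min RT before reading.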
The depositor's hits bear a star. Hits are enriched below; roughly 2.3% of the tested compounds scored in any of these assays. Unless noted, calls follow the shape of the dose curve; as a rule, active = well fitted curve in the direction sought with a large enough effect; inconclusive = small, poorly fitted or top-dose-only effect, or another doubt; inactive = no such curve, though single readings can be large; an effect the other way counts as inactive or inconclusive.

Screening COc1cc(NC(=O)C(OC(=O)CNC(=O)c2ccccc2)c2ccccc2)c(OC)cc1Cl (stereo unspecified) returned Nrf2 inh 7.5% and A549 viability 6.9%.
`CNC(=S)N(CCc1c(C)[nH]c2ccc(C)cc12)Cc1cc(OC)c(OC)c(OC)c1` gave Mito fusion yeast 0.6%, miR-21 FLuc -2.0%, Nrf2 inh 23.1µM*, A549 viability inconclusive and Nrf2 activator 0.0%.
COc1ccc(NC(=O)c2cc(CC(C)C)nc3ccccc23)cc1 was read as Mito fusion yeast -1.7%, miR-21 FLuc 0.5%, Nrf2 inh inconclusive, A549 viability 0.3% and Nrf2 activator -2.3%.
`Cc1ccc(NC(=O)c2cc(CC(C)C)nc3ccccc23)cc1` gave Mito fusion yeast -3.7%, miR-21 FLuc 0.3%, Nrf2 inh 5.8µM*, A549 viability 4.0% and Nrf2 activator -2.5%.
For O=C(COc1ccccc1)Nc1nnc(SCc2cc(=O)c3ccccc3[nH]2)s1 the results were miR-21 FLuc 16.6%, A549 viability -7.4% and Nrf2 activator 0.5%.
`Cn1cnc2c(NCc3ccccc3)nc(Cl)nc21` gave Nrf2 inh 15.1% and A549 viability 11.3%.
`CCc1cccc2c(C(=O)COC(=O)c3ccc([N+](=O)[O-])s3)c[nH]c12` gave Mito fusion yeast -18.9%, miR-21 FLuc -2.2%, Nrf2 inh inconclusive, A549 viability 20.6µM* and Nrf2 activator 19.1%.
`O=C(CNC(=O)c1ccccc1F)OCc1nc2ccccc2s1` gave Mito fusion yeast -2.6%, miR-21 FLuc -24.6%, Nrf2 inh inconclusive, A549 viability -0.2% and Nrf2 activator 0.6%.
CNc1sc(C(=O)c2ccccc2F)c(N)c1-c1nc2ccccc2s1 was read as Mito fusion yeast 7.0%, miR-21 FLuc -32.5%, Nrf2 inh inconclusive, A549 viability -14.6% and Nrf2 activator 10µM*.
Cc1ccc(C)n1-c1nnc(N2CCCC(C(=O)NCc3ccccc3)C2)s1 (stereo unspecified) was read as miR-21 FLuc -0.5%, Nrf2 inh 0.3%, A549 viability 4.2% and Nrf2 activator 15.9%.
CNc1oc(/C=C/c2ccccc2)nc1C#N was read as Mito fusion yeast -1.5%, miR-21 FLuc -89.2%, Nrf2 inh inconclusive, A549 viability 4.6% and Nrf2 activator 2.82µM*.
Screening COCCNc1oc(/C=C/c2ccccc2)nc1C#N returned Mito fusion yeast -0.1%, miR-21 FLuc -70.8%, Nrf2 inh inconclusive, A549 viability -5.4% and Nrf2 activator 2.0%.
`COc1ccc(N2CCN(C(=O)CCCNC(=O)Cn3cnc4sc(C)c(C)c4c3=O)CC2)cc1` gave Mito fusion yeast 1.2%, miR-21 FLuc 5.5%, Nrf2 inh -21.2%, A549 viability -2.7% and Nrf2 activator 0.3%.
For Cc1sc2ncn(CC(=O)NCCCC(=O)Nc3ccc(C(C)C)cc3)c(=O)c2c1C the results were Mito fusion yeast -4.9%, miR-21 FLuc -2.4%, Nrf2 inh 29.1µM*, A549 viability inconclusive and Nrf2 activator -0.9%.
`COc1ccccc1N1CCN(C(=O)CCCNC(=O)Cn2cnc3sc(C)c(C)c3c2=O)CC1` gave Mito fusion yeast -4.3%, miR-21 FLuc 6.5%, Nrf2 inh 23.1µM*, A549 viability 6.9% and Nrf2 activator 0.1%.
`CCCC[C@H]1CCCO[C@@](C(=O)NCc2ccccn2)(C(F)(F)F)C1` gave Nrf2 inh 13.8% and A549 viability 4.7%.
Screening CCc1nnc(NC(=O)/C=C/c2ccco2)s1 returned Mito fusion yeast 1.2%, miR-21 FLuc -47.6%, Nrf2 inh 19.9%, A549 viability inconclusive and Nrf2 activator 4.47µM*.
Screening COCCn1c(=NC(=O)c2ccc3c(c2)OCCO3)sc2cc(S(N)(=O)=O)ccc21 returned Mito fusion yeast -9.4%, miR-21 FLuc -2.7%, Nrf2 inh 13µM*, A549 viability -14.4% and Nrf2 activator -1.0%.
`CCOC(=O)c1sc(N2C(=O)c3oc4ccc(F)cc4c(=O)c3C2c2cccc(OC)c2)nc1C` (stereo unspecified) gave miR-21 FLuc -28.7%, Nrf2 inh -14.3%, A549 viability -6.4% and Nrf2 activator -0.6%.
Screening COc1ccccc1CNC(=S)NC1CCCCC1 returned Mito fusion yeast -3.4%, miR-21 FLuc 4.9%, Nrf2 inh 14.6µM*, A549 viability inconclusive and Nrf2 activator 3.0%.

A portion taken from the entries so far, for reference:
`COc1ccc(N2CCN(C(=O)CCCNC(=O)Cn3cnc4sc(C)c(C)c4c3=O)CC2)cc1` gave Mito fusion yeast 1.2%, miR-21 FLuc 5.5%, Nrf2 inh -21.2%, A549 viability -2.7% and Nrf2 activator 0.3%.
For Cc1sc2ncn(CC(=O)NCCCC(=O)Nc3ccc(C(C)C)cc3)c(=O)c2c1C the results were Mito fusion yeast -4.9%, miR-21 FLuc -2.4%, Nrf2 inh 29.1µM*, A549 viability inconclusive and Nrf2 activator -0.9%.
`COc1ccccc1N1CCN(C(=O)CCCNC(=O)Cn2cnc3sc(C)c(C)c3c2=O)CC1` gave Mito fusion yeast -4.3%, miR-21 FLuc 6.5%, Nrf2 inh 23.1µM*, A549 viability 6.9% and Nrf2 activator 0.1%.

Next entries.
Fc1ccccc1CNC(=S)NC1CCCCC1 was read as Mito fusion yeast -12.4%, miR-21 FLuc -7.3%, Nrf2 inh -18.6%, A549 viability -2.3% and Nrf2 activator 0.2%.
O=C(N/N=C/c1cccc(Oc2ccc([N+](=O)[O-])cc2[N+](=O)[O-])c1)c1cncc(Br)c1 was read as Mito fusion yeast -1.5%, miR-21 FLuc 0.4%, Nrf2 inh 13µM*, A549 viability inconclusive and Nrf2 activator inconclusive.
`CC(=O)c1ccc(N2CCN(c3ccc(C(N)=O)cc3[N+](=O)[O-])CC2)cc1` gave Mito fusion yeast 2.4%, miR-21 FLuc -4.8%, Nrf2 inh -23.5%, A549 viability 3.3% and Nrf2 activator -0.6%.
NC(=O)CC(NC(=O)c1ccccc1)c1ccc(N2CCN(c3ccc(F)cc3)CC2)c([N+](=O)[O-])c1 (stereo unspecified) was read as Mito fusion yeast 0.3%, miR-21 FLuc 20.0%, Nrf2 inh 20.6µM*, A549 viability -19.0% and Nrf2 activator -0.3%.
For NC(=O)c1ccc(N2CCN(c3ccc(O)cc3)CC2)c([N+](=O)[O-])c1 the results were Mito fusion yeast 3.4%, miR-21 FLuc -5.0%, Nrf2 inh 18.4µM*, A549 viability -22.5% and Nrf2 activator 0.6%.
`NC(=O)CC(NC(=O)c1ccccc1)c1ccc(N2CCN(c3ccccc3)CC2)c([N+](=O)[O-])c1` (stereo unspecified) gave Mito fusion yeast -0.1%, miR-21 FLuc 6.0%, Nrf2 inh inconclusive, A549 viability -4.8% and Nrf2 activator -0.7%.
For CCOc1ccc(S(=O)(=O)N(CC(=O)Nc2cccnc2)c2ccccc2)cc1 the results were miR-21 FLuc inconclusive, Nrf2 inh inconclusive, A549 viability -5.5% and Nrf2 activator 3.0%.
CCc1nc2c(OCc3ccc(Cl)cc3Cl)cccn2c1N(C=O)Cc1ccc(OC)cc1 was read as Nrf2 activator -0.7%.
For Cc1cc2[nH]c3c(=O)n(Cc4ccccc4F)ncc3c2s1 the results were Nrf2 inh -16.6% and A549 viability -0.4%.
For Nc1c(C(=O)NCc2ccccc2)c2nc3ccccc3nc2n1CCCN1CCOCC1 the results were Mito fusion yeast -53.0%, miR-21 FLuc 21.3%, Nrf2 inh inconclusive, A549 viability -14.2% and Nrf2 activator -2.6%.
